Apparent affinities of Ab-95 variants for a coronavirus HR2 peptide

The measurements come from Engelhart et al. 2022 (doi:10.1038/s41597-022-01779-4) through the FLAb antibody collection.

All variants were tested on one target, the spike HR2 peptide PDVDLGDISGINAS (SARS-CoV-2).

Parent: Ab-95, a human scFv built as VH, a 15-residue (Gly4Ser)3 linker, VL. Only the CDRs of the light chain vary.
VH: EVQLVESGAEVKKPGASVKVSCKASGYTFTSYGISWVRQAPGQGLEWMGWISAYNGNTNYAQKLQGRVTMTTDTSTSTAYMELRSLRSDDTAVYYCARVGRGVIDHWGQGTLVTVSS
VL: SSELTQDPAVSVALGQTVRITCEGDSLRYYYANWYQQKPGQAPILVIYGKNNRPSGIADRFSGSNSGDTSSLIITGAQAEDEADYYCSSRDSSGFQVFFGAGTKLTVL

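Phage display of a naive human antibody library on the peptide gave the parent. AAYL52 was designed without a model: most single CDR substitutions and a random sample of double and triple ones. In AlphaSeq, yeast of one mating type display the scFv and yeast of the other type display the target. The frequency of each diploid, read from paired DNA barcodes, reflects how well the two displayed proteins bind. Read counts were normalised to the haploid input and turned into Kd by a linear fit to BCL2-family pairs of known affinity, for each replicate. Mating was done three times.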

Changes read parent residue, position, new residue, counted from the first residue of the VL shown. Every variant below is changed at S55 of the VL (sequential numbering). Kd is apparent (estimated from mating counts) and averaged on the log scale over replicates with a signal. Smaller is tighter. Where no diploid with the target was found in any replicate, the entry reads "not detected": below detection, most likely a poor binder, though not proof of it. Nonspecific signal, from three strains lacking the peptide, appeared in 28% of pairings of library AAYL52, centred on 8.2 µM (5% of these signals below 800 nM); values are not corrected for it. The control count says in how many pairings with the empty strains this scFv gave a signal.

| changes | Kd | seen in | signal with controls |
|---|---|---|---|
| S55F/S88H/F95T | 480 nM | 3/3 | 1/9 |
| S55N/D91G/F98L | 9.5 µM | 2/3 | 3/9 |
| S26P/S55M/G94R | 1.9 µM | 2/3 | 2/9 |
| A32G/S55N/V97I | not detected | 0/3 | 0/9 |
| N33Y/S55F/S89L | 13 µM | 1/3 | 3/9 |
| G49R/S55P/S89T | not detected | 0/3 | 3/9 |
| K50T/S55D/D91W | 800 nM | 3/3 | 5/9 |
| G49N/R53C/S55I | 1.1 µM | 3/3 | 1/9 |
| S55K/V97K | 1.7 µM | 3/3 | 1/9 |
| A32I/P54Y/S55T | not detected | 0/3 | 0/9 |
| Y29H/S55G | 68 nM | 3/3 | 3/9 |
| G49V/S55D/R90Y | 7.3 µM | 1/3 | 1/9 |
| Y29W/S55D/Q96A | 320 nM | 3/3 | 4/9 |
| S26R/S55V | 1.6 µM | 2/3 | 3/9 |
| S26T/S55E/F98C | 86 nM | 3/3 | 2/9 |
| S55E | 28 nM | 3/3 | 2/9 |
| N33K/R53T/S55P | 68 µM | 3/3 | 1/9 |
| L27R/K50T/S55W | 24 µM | 3/3 | 2/9 |
| E23G/S55Q/F95V | 560 nM | 3/3 | 4/9 |
| N52C/S55A/F95V | 480 nM | 1/3 | 0/9 |
| Y31W/G49T/S55V | not detected | 0/3 | 0/9 |
| R28Y/A32C/S55C | 8.3 µM | 2/3 | 3/9 |
| N33F/S55A/V97P | 3.0 µM | 2/3 | 5/9 |
| S26R/S55I | 130 µM | 1/3 | 3/9 |
| G24F/S55M | 2.1 µM | 1/3 | 0/9 |
| G24H/S55E/V97N | 440 nM | 3/3 | 4/9 |
| L27G/N52A/S55D | 1.1 µM | 3/3 | 1/9 |
| S55M/S92H/F95Q | 730 nM | 3/3 | 1/9 |
| K50E/S55V/D91T | 5.7 µM | 3/3 | 4/9 |
| P54K/S55A/F98S | 2.7 µM | 2/3 | 4/9 |
| S26F/S55R | 3.9 µM | 2/3 | 3/9 |
| E23N/P54V/S55H | 480 nM | 3/3 | 1/9 |
| S55V/R90I/V97P | 1.5 µM | 3/3 | 3/9 |
| D25P/S55I/F98K | 460 nM | 3/3 | 2/9 |
| G49D/S55I/S93M | 9.7 µM | 1/3 | 3/9 |
| S55C/F98I | 850 nM | 1/3 | 0/9 |
| S55A/S88E | 43 nM | 3/3 | 3/9 |
| G24C/S55N | 250 nM | 3/3 | 4/9 |
| N52D/R53S/S55G | 30 µM | 3/3 | 3/9 |
| S55G/V97G/F98K | 24 µM | 2/3 | 3/9 |
| N51W/N52V/S55Y | 83 µM | 2/3 | 4/9 |
| Y29Q/K50E/S55L | 81 nM | 3/3 | 1/9 |
| R28H/Y30M/S55K | 150 nM | 3/3 | 1/9 |
| S55W/R90F/F98G | 35 µM | 3/3 | 3/9 |
| Y30M/S55P/G94A | 350 nM | 3/3 | 5/9 |
| S55C | 270 nM | 3/3 | 4/9 |
| K50D/S55V/D91V | 8.7 µM | 1/3 | 2/9 |
| A32F/N33Y/S55A | 530 nM | 3/3 | 2/9 |
| Y30Q/S55N/R90V | 26 nM | 3/3 | 2/9 |
| L27T/Y29R/S55A | 2.1 µM | 3/3 | 5/9 |

Parent in this assay: reference entry 200 nM, copy in this library 180 nM.